From patent US8575156B2, “Cyclic inhibitors of 11β-hydroxysteroid dehydrogenase 1” (Vitae Pharmaceuticals, Inc., priority 2007, dated 2013)
Like-named read-outs stand apart in the source and are kept apart here.

By UniProt entry, the sequences of proteins in these tests, tags left out. Where a name states a change or a piece, a line headed by the entry shows the natural chain unless it says otherwise.
UniProt P28845: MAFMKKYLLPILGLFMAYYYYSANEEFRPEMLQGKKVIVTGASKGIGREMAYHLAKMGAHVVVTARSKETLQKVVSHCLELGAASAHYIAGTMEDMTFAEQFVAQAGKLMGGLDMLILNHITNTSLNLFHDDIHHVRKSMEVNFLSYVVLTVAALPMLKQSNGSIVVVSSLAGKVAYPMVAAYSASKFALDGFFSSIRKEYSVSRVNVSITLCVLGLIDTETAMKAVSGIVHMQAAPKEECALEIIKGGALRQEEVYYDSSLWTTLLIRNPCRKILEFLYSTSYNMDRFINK

Legend:
11β-HSD1 [1] = biological target: T1, 11β-HSD1 (Homo sapiens, UniProt P28845); test: biochemical; conditions: for IC50: IC50 Range; for inhibition at 0.1 µM: read-out: Average % inhibition at 100 nM; for inhibition at 0.1111 µM: read-out: Average % inhibition at 111.1 nM
11β-HSD1 [2] = biological target: T1, 11β-HSD1
[3] = Biological Test Example 1, microsomes from CHO cells overexpressing human 11β-HSD1

| Compound | IC50 (11β-HSD1 [1]) | IC50 (11β-HSD1 [1]; [3]) | further results |
| --- | --- | --- | --- |
| C=CC[C@]1(c2ccc(F)cc2)CCN(Cc2ccccc2CN2CCN(C)CC2)C(=O)O1 (stereo in doubt) | < 100 nM | – | – |
| CC(O)C[C@]1(c2ccc(F)cc2)CCN([C@@H](C)c2ccc(-c3ccc(F)cc3F)cc2)C(=O)O1 (single isomer, unassigned) [EXAMPLE 137 Isomer 2] | – | – | Average % inhibition at 111.1 nM (11β-HSD1 [2]; 0.1111 µM): 95.5%; inhibition at 0.1 µM (11β-HSD1 [1]): 96.4% |
| C[C@@H](c1ccc(C(C)(C)O)cc1)N1CC[C@](CCCO)(c2ccccc2)OC1=O [EXAMPLE 280, (R)-3-((S)-1-(4-(2-hydroxypropan-2-yl)phenyl)ethyl)-6-(3-hydroxypropyl)-6-phenyl-1,3-oxazinan-2-one] | – | < 100 nM | – |
| C=CC[C@]1(c2ccc(F)cc2)CCN([C@@H](C)C2CCCCC2)C(=O)O1 (single isomer, unassigned) [EXAMPLE 120 Isomer 1] | < 100 nM | – | – |
| C[C@@H](c1ccc(Br)cc1)N1CC[C@](CCCN2CCCS2(=O)=O)(c2ccccc2)OC1=O [EXAMPLE 516, (R)-3-((S)-1-(4-bromophenyl)ethyl)-6-(3-(1,1-dioxo-isothiazolidin-2-yl)propyl)-6-phenyl-1,3-oxazinan-2-one] | – | < 100 nM | – |
| C[C@@H](c1ccc(CO)cc1)N1CC[C@](CCCO)(c2ccccc2)OC1=O [EXAMPLE 194, (R)-3-((S)-1-(4-(hydroxymethyl)phenyl)ethyl)-6-(3-hydroxypropyl)-6-phenyl-1,3-oxazinan-2-one] | – | < 100 nM | – |
| C=CCC1(c2ccc(F)cc2)CCN([C@@H](C)c2ccc(OC)cc2)C(=O)O1 (single isomer, unassigned) [EXAMPLE 193 Isomer 2] | – | – | Average % inhibition at 100 nM (11β-HSD1 [2]; 0.1 µM): 94.3% |
| C[C@@H](c1ccc(Br)cc1)N1CC[C@](CCCN2CCCC2=O)(c2ccccc2)OC1=O [EXAMPLE 509, (R)-3-((S)-1-(4-bromophenyl)ethyl)-6-(3-(2-oxopyrrolidin-1-yl)propyl)-6-phenyl-1,3-oxazinan-2-one] | – | < 100 nM | – |
| COCC[C@]1(c2ccc(F)cc2)CCN([C@@H](C)c2ccc(-c3ccc(F)cc3F)cc2)C(=O)O1 [EXAMPLE 140, (S)-3-((S)-1-(2′,4′-difluorobiphenyl-4-yl)ethyl)-6-(4-fluorophenyl)-6-(2-methoxyethyl)-1,3-oxazinan-2-one] | < 100 nM | – | – |
| C=CC[C@@]1(c2ccc(F)cc2)CCN([C@@H](C)C2CCCCC2)C(=O)O1 (single isomer, unassigned) [EXAMPLE 120 Isomer 2] | < 100 nM | – | – |
| (S)-3-((S)-1-(2′,4′-difluorobiphenyl-4-yl)propyl)-6-(4-fluorophenyl)-6-(2-hydroxyethyl)-1,3-oxazinan-2-one [EXAMPLE 175 Isomer 1] | – | – | Average % inhibition at 100 nM (11β-HSD1 [2]): 94.3% |
| C[C@@H](c1ccc(CCO)cc1)N1CC[C@](CCCO)(c2ccccc2)OC1=O [EXAMPLE 198, (R)-3-((S)-1-(4-(2-hydroxyethyl)phenyl)ethyl)-6-(3-hydroxypropyl)-6-phenyl-1,3-oxazinan-2-one] | – | < 100 nM | – |
| C=CCC1(c2ccc(F)cc2)CCN([C@@H](C)c2ccc(OC)cc2)C(=O)O1 (single isomer, unassigned) [EXAMPLE 193 Isomer 1] | – | – | inhibition at 0.1 µM (11β-HSD1 [1]): 95.6% |
| CC1(c2ccccc2)CCN(c2ccnc(-c3cccc(Cl)c3)n2)C(=O)O1 (centres unmarked) | 100 to 1000 nM | – | inhibition at 0.1111 µM (11β-HSD1 [1]): 15.5% |
| CC(O)C[C@]1(c2ccc(F)cc2)CCN([C@@H](C)c2ccc(-c3ccc(F)cc3F)cc2)C(=O)O1 (single isomer, unassigned) [EXAMPLE 137 Isomer 1] | – | – | inhibition at 0.1111 µM (11β-HSD1 [1]): 96.7% |
